## Ab-95 light chain CDR variants: yeast mating affinities

Reference: Engelhart et al. 2022, doi:10.1038/s41597-022-01779-4. File: FLAb, binding data.

Antigen: PDVDLGDISGINAS, a 14-residue peptide of the SARS-CoV-2 spike HR2 region.

Parent: Ab-95, a human scFv built as VH, a (GGGGS)3 linker, VL. Only the CDRs of the light chain vary.
VH: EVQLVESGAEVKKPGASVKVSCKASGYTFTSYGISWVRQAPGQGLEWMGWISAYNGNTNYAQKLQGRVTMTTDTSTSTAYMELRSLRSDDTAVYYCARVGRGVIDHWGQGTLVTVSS
VL: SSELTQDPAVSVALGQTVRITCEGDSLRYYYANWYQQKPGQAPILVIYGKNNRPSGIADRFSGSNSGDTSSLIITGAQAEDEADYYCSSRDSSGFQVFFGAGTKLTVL

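The starting antibody came from a phage panning campaign against this peptide. In library AAYL52, one, two or three CDR residues were substituted; doubles and triples were drawn at random. The assay is AlphaSeq: two haploid yeast populations carry antibody and antigen on their surface. The frequency of each diploid, read from paired DNA barcodes, reflects how well the two displayed proteins bind. Scores were corrected for input abundance and mapped to Kd with protein pairs of known affinity run in the same pool. There are three technical replicates.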

Each variant is given by its three light chain CDRs, as the data file delimits them; those of the parent are EGDSLRYYYAN, GKNNRPS, SSRDSSGFQVF.
Every variant below is changed at L27 of the VL (sequential numbering).
Affinities are written as log10 Kd with Kd in nM; a lower number is a better binder.
A mean of the replicates is given; it leaves out those without a signal.
"not detected" marks a missing value. The strain was present, yet no cells mated with the target were sequenced in any replicate, which points to weak or no binding.
Three control strains display no target. For library AAYL52, 28% of the pairings with them gave a signal, with a median of 3.91 and one signal in twenty below 2.90, so weak values seen in few replicates may be background.

CDR-L1,CDR-L2,CDR-L3,mean log10 Kd (nM),replicates with signal
EGDSPRYQYAN,GPNNRPS,SSRDSSGFQVF,2.79,3 of 3
EGDSYRYYYAN,GKNTRPS,SSRDSDGFQVF,3.74,3 of 3
EGDSKRYYYAN,GKNNRPS,SSRDSSGFQVF,not detected,0 of 3
EGMSSRYYYAN,GKNERPS,SSRDSSGFQVF,3.27,3 of 3
EGDSTRYYYAN,GKNNRPS,SNRDSSGAQVF,3.92,3 of 3
EDDSNRYYYAN,GKNNRPS,SSRDSSGFVVF,2.73,1 of 3
EGDSGRYHMAN,GKNNRPS,SSRDSSGFQVF,3.29,3 of 3
EGDSGRYYEAN,GKNNRPS,SSRDSSLFQVF,3.55,2 of 3
EGDSHRYYYAN,GKNNKPS,STRDSSGFQVF,3.37,3 of 3
EGDSWRYYYAN,GKNNRPS,SSMDCSGFQVF,not detected,0 of 3
EGDSYAYYYAN,GKNNRPS,SSRDSSWFQVF,4.07,3 of 3
EGDSMRYYYAN,GKPNRPS,SSRDSSGFQVS,3.37,1 of 3
EGDSERYYYAN,GKNNRPS,SSRDSSGFQVF,3.25,3 of 3
SGDSNKYYYAN,GKNNRPS,SSRDSSGFQVF,2.43,3 of 3
EGDSWRYEYAN,GKNNRYS,SSRDSSGFQVF,3.57,1 of 3
EGDSGRYYYAN,GKNNRPQ,SSEDSSGFQVF,3.21,1 of 3
EGDSARYDYAN,GKNNRPS,SSRDSSGFQVF,2.61,3 of 3
EGDSVRYYYAN,GKNNNPS,SSRDSSGFQVF,3.82,1 of 3
EGDSPRYYYAN,PKNNRPS,SSRPSSGFQVF,3.99,2 of 3
EGDSCDYKYAN,GKNNRPS,SSRDSSGFQVF,3.50,2 of 3
EGLSKRYYYAN,GKNNRPS,SSRRSSGFQVF,3.64,1 of 3
EGDSTRYYYAN,GKNNRPS,SSRDSSGFQID,5.65,2 of 3
EGDSFRYYYAN,GKNNRPS,SSRDSSNFQVF,3.55,3 of 3
EGDSHRYYYAN,GKNNRPS,SSRDSSGFYVF,2.92,1 of 3
EGDSMIYYYAN,GKNNRKS,SSRDSSGFQVF,3.95,1 of 3
EGDSCRYYYAN,GKNNRPS,SSRDSSGFHVP,1.94,3 of 3
EGDSCRYYYAN,FKNHRPS,SSRDSSGFQVF,3.99,1 of 3
YGDSFRYYYAN,GKNNRPS,SSRDSIGFQVF,3.51,3 of 3
EGDSCRYWYAN,GKNNRPS,VSRDSSGFQVF,4.44,1 of 3
EGDSPRYYYAN,GKNNRPS,SSRDSSGFQVF,4.44,2 of 3
EGDSWRYYYAN,GKNNRPS,SSRDISGFFVF,4.00,1 of 3
EGDSMRYYYAN,GKNNRPS,SSRDSSGFQHF,3.04,3 of 3
EGPSERYYYAN,GKNNRPS,FSRDSSGFQVF,4.02,2 of 3
EGDSPRYYYAN,GKHNVPS,SSRDSSGFQVF,4.11,1 of 3
EGDSWRYYYAN,GKNNRPS,SSRDFSGFQVM,3.55,2 of 3
EGDSHRYYYAN,GKNIRPS,SSRDSSGFQVF,4.65,2 of 3
EGDSTRYYYAN,GKNNRPQ,SSRDSSGMQVF,3.31,3 of 3
EGDSCRYYYAN,TKNNRPH,SSRDSSGFQVF,3.83,2 of 3
EGDSIRYYYAN,GKNNIPS,SSRDSSGFQVN,not detected,0 of 3
EGDSIRYYYAM,GKNNRPS,SSQDSSGFQVF,4.82,1 of 3
EGDSERYAYAN,GKNNRPS,SSRDSSGFQVL,2.81,3 of 3
EGDSVRYYYAN,RKNNRPS,SSRDSSGRQVF,5.63,2 of 3
EGDSFRYYYAN,GKNNRPS,NSRDSSGFQTF,not detected,0 of 3
EGDSSYYYYAN,GKNNRPS,SSRMSSGFQVF,4.13,1 of 3
EGGSPRYYYAN,GKNNRPS,SSRDSSEFQVF,4.88,2 of 3
EGDSVRYYYAN,GKNNRPS,SSRDSSGFQVF,3.42,3 of 3
EGDSTRYYYAN,GKNNRLS,RSRDSSGFQVF,4.48,3 of 3
EGDSWRYYYAN,GVNNRPS,SSRQSSGFQVF,not detected,0 of 3
EGDSDRYYYAN,GKNNAPS,SSRDSHGFQVF,4.09,1 of 3
EGMSVRYYYAN,GKNNRPS,SSRDSSGFSVF,not detected,0 of 3
EGDSQRYYYAC,GKNNRPP,SSRDSSGFQVF,3.77,1 of 3
EGDSRRYYYSN,GKNNRPS,SSRDSSGFSVF,4.33,1 of 3
EGDRERYYYAN,GKNNRPM,SSRDSSGFQVF,1.43,3 of 3
EGDSERYYYAN,GKNKRPS,SSKDSSGFQVF,4.24,1 of 3
EGDSQRYRYAN,GKNNRPS,SSVDSSGFQVF,3.23,3 of 3
EGMSFRYYYAN,GKKNRPS,SSRDSSGFQVF,not detected,0 of 3
EGDSPRYYYAN,GKNNRCS,SSRDSSGFTVF,4.14,3 of 3
EGDSCRYYYAN,GKNERPS,SSRDSSGAQVF,4.68,1 of 3
EGDSYRYYYAN,GKNWRPK,SSRDSSGFQVF,not detected,0 of 3
EHDSTRYYYAN,GKNVRPS,SSRDSSGFQVF,2.99,3 of 3
EGDSWRYYYAN,GKTNRPS,SSRDSSGFQKF,5.39,1 of 3
WGDSRRYYYAN,GKNNRPS,SSRDSSGFQVF,2.52,3 of 3
EIDSERYYYAN,GKNNRPS,SSRDSSGFPVF,2.90,3 of 3
EIASFRYYYAN,GKNNRPS,SSRDSSGFQVF,3.43,3 of 3
EGDSFRYYYAN,GKNNRPS,SSRDSSGFQYF,2.52,3 of 3
EGDSNRYYYAN,GKNNRPS,SSWDSSGFQMF,3.33,2 of 3

Top 7 of the variants detected in all replicates, tightest first:

CDR-L1,CDR-L2,CDR-L3,mean log10 Kd (nM),replicates with signal
EGDRERYYYAN,GKNNRPM,SSRDSSGFQVF,1.43,3 of 3
EGDSCRYYYAN,GKNNRPS,SSRDSSGFHVP,1.94,3 of 3
SGDSNKYYYAN,GKNNRPS,SSRDSSGFQVF,2.43,3 of 3
WGDSRRYYYAN,GKNNRPS,SSRDSSGFQVF,2.52,3 of 3
EGDSFRYYYAN,GKNNRPS,SSRDSSGFQYF,2.52,3 of 3
EGDSARYDYAN,GKNNRPS,SSRDSSGFQVF,2.61,3 of 3
EGDSPRYQYAN,GPNNRPS,SSRDSSGFQVF,2.79,3 of 3

Parent in this assay: reference entry 2.31, copy in this library 2.25.